Source: ChEMBL document CHEMBL3832038
Only a part of the results on these compounds is given; other tests are left out.

System: Homo sapiens
Assay: Determination of pharmacokinetic pararmeters of Fentanyl following first 72-hour application of Fentanyl Transdermal System to healthy subjects and intravenous (IV) administration to surgical and hepatically impaired patients
Details: in vivo, topical_or_ocular

For `CCC(=O)N(c1ccccc1)C1CCN(CCc2ccccc2)CC1`, the Tmax was 32.8 h [middle of 4 runs].
